{"source": "patent US12486270B2", "about": "“Receptor tyrosine kinase inhibitors for treatment of protein kinase modulation-responsive disease or disorder” (THE UNITED STATES OF AMERICA, as represented by the …, priority 2019, dated 2025)", "key": {"LC3": {"system": "LC3", "test": "LC3 autophagic puncta imaging in HT-29 cells transduced with fluorescent LC3", "settings": "72 hours"}, "HT-29 cells": {"system": "HT-29 cells", "test": "Cell cycle analysis by flow cytometry in HT-29 cells", "assay_type": "cell-based, human", "settings": "1 μM, 72 hrs"}, "Colo205 tumor": {"system": "Colo205 tumor", "test": "Colo205 subcutaneous tumor model in nu/nu mice", "settings": "15 mg/kg daily i.p."}, "HT-29 tumor": {"system": "HT-29 tumor", "test": "HT-29 subcutaneous tumor model in nu/nu mice", "assay_type": "in vivo", "settings": "15 mg/kg daily i.p."}, "[1]": {"test": "Preliminary tolerability experiments in mice", "settings": "30 mg/kg i.p."}, "LC3B": {"system": "LC3B", "test": "LC3B accumulation in SW620 cells", "assay_type": "cell-based, human", "settings": "1 μM, 72 hours", "method": "Western blotting. Protein lysates were separated by SDS-PAGE and then transferred to a nitrocellulose membrane. After blocking, membranes were incubated overnight with antibodies to LC3 (rabbit Monoclonal antibody, Cell Signaling). After washing with TBS-T (TBS with 0.05 Tween-20), membranes were incubated with the HRP (Horseradish peroxidase)-linked secondary antibody (IgG donkey anti-rabbit IgG (NA934) (GE LifeSciences, Marlborough, MA). Blots were developed using ECL prime (GE LifeSciences, RPN2232) and digitally captured on an LAS4000 (GE LifeSciences). After stripping, the membrane was re-probed with a mouse monoclonal antibody to GAPDH (Santa Cruz) followed by a secondary IgG sheep anti-mouse IgG (NA931). Western blot bands were quantified using Fiji (Schindelin et al., 2012)."}}, "data": [{"smiles": "Cc1ccc(C(=O)Nc2cccc(C(F)(F)F)c2)cc1Nc1nc(-c2cccnc2)nc2nn(C)cc12", "values": [{"measurement": "LC3-related autophagy puncta", "setting": "LC3", "value": "increase significantly the average number of LC3-related puncta/cell"}, {"measurement": "cell cycle distribution", "setting": "HT-29 cells", "value": "Neither compound altered cell cycle distribution"}, {"measurement": "Colo205 tumor growth (tumor measurements and tumor weight)", "setting": "Colo205 tumor", "value": "reduced significantly Colo205 tumor growth"}, {"measurement": "growth of HT-29 colorectal carcinoma cells in mice", "setting": "HT-29 tumor", "value": "reduced significantly the growth of HT-29 colorectal carcinoma cells in mice"}, {"measurement": "average % Ki67+ cells, control vs treated tumors", "setting": "HT-29 tumor; n=5", "value": "control (n=5) is significantly higher"}, {"measurement": "mean % cleaved caspase-3+ tumor area vs control", "setting": "HT-29 tumor; n=5", "value": "significantly greater"}, {"measurement": "tumor vasculature (average CD31 fluorescence intensity)", "setting": "HT-29 tumor; n=5", "value": "no measurable effect on the tumor vasculature"}, {"measurement": "body weight", "setting": "[1]", "value": "significant reduction of body weight"}, {"measurement": "LC3B accumulation in SW620 cells", "setting": "LC3B", "value": "induce LC3B accumulation"}]}]}
